Laboratory results published in USRE39181E1, “Aqueous risperidone formulations” (priority 1994, dated 2006).
Where a name gives a salt, the structure may show the parent alone.

Assay: physchem

Question: Which solubility does the source give for `Cc1nc2n(c(=O)c1CCN1CCC(c3noc4cc(F)ccc34)CC1)CCCC2` [risperidone hydrochloride] here?
Answer: 19.6 mg/mL
